Antibody variant affinities, Ab-14 heavy chain, assay B

Reference: Li et al. 2023, doi:10.1038/s41467-023-39022-2. File: FLAb, binding data.

Binding partner: SARS-CoV-2 spike HR2 peptide, sequence PDVDLGDISGINAS.

Ab-14 is the parent antibody, in scFv form: VH, then the linker GGGGSGGGGSGGGGS, then VL. The light chain is unchanged in all variants.
VH: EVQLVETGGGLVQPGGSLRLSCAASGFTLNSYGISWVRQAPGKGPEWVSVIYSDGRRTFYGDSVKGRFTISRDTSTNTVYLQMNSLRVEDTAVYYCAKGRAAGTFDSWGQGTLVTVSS
VL: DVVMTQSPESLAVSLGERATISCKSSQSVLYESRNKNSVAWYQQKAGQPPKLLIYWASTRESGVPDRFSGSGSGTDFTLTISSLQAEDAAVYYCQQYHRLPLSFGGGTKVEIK

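The starting antibody came from a phage panning campaign against this peptide. This is the validation round: designs drawn from the data on random variants, tested in the same kind of assay. Their group label is 14H_En_Gibbs (En: ensemble of fine-tuned language models; Gibbs: Gibbs sampling). In AlphaSeq, yeast of one mating type display the scFv and yeast of the other type display the target. Binding brings cells together so that they mate, and sequencing counts the barcode pairs among the diploids. The ratio of observed to expected reads was calibrated, replicate by replicate, on BCL2-family standards whose Kd was known from biolayer interferometry. The assay was run in six technical replicates.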

The parent's heavy chain CDRs are GFTLNSYGIS, VIYSDGRRTFYGDSVK, GRAAGTFDS; each variant's own CDRs replace them letter for letter. The read-out is the apparent dissociation constant on a log10 scale (nM): the lower, the stronger. Where no diploid with the target was found in that replicate, the entry reads "n.d.": below detection, most likely a poor binder, though not proof of it. The authors averaged sequences with at least three values out of six and counted those with two or fewer as poor binders. Empty control strains, which show no peptide, gave a signal in 1% of pairings with all heavy chain designs; the median was 2.08 and 95% of these signals were weaker than 0.84. No background was subtracted. For each scFv, signals with the empty controls are counted beside the result, with their mean in brackets. Values of this round are not directly comparable with the first-round values of the same sequences. The parent sequence was in this pool as ten entries: three were never detected, three once, and four in most replicates, with averages from 0.34 to 2.37.

CDR-H1,CDR-H2,CDR-H3,log10 Kd (nM) by replicate,empty controls
GFNLKEYGIS,VIYADGVRAQYAESVK,GTYSSKFGM,n.d. n.d. n.d. n.d. n.d. n.d.,0/18
GDGLKEYGIS,VIYADGMRESYVDDVK,GQTGGTFNL,n.d. n.d. n.d. n.d. n.d. -0.09,0/18
DFNLNEYGIS,VIYADGVRASMLDKVK,GQISGTFDT,n.d. 2.23 1.23 n.d. 3.76 n.d.,0/18
GVNLDEYGIS,VIYADGVRQHYTDSVK,GTEGDFGVV,-0.35 -0.39 -0.79 -0.69 -0.41 -0.36,0/18
GKDIESYGVS,VIYADGKRTAYANKFK,GSNAGSFVM,n.d. n.d. n.d. n.d. n.d. n.d.,0/18
GADLNEYGIS,VIYADGNRNAYANKFK,GTNGTFLIN,n.d. n.d. n.d. n.d. n.d. n.d.,0/18
GFEIEEYGIS,VIYADGQRTFYADNVK,GKVDTVVMY,n.d. n.d. n.d. n.d. n.d. n.d.,0/18
GFDLNEYGVS,VIYADGHRAQYTEDVK,GGNSGAVDM,1.30 1.35 1.81 1.58 1.06 1.19,0/18
GFSLDEMGIS,VIYADGQRTFYQASVK,GQNSGTVFV,n.d. n.d. n.d. n.d. n.d. n.d.,0/18
GFKIDEYGIS,VIYADGMRAHYSDAVK,GVKVGNVVM,n.d. n.d. n.d. n.d. n.d. n.d.,0/18
GFNIDEYGIS,VIYADGSRAVYTESVK,GHNGNRLVG,n.d. n.d. n.d. n.d. n.d. n.d.,0/18
GFDLEEYGVN,VIYADGQRTVYTDAVK,GEVSAGFLI,n.d. n.d. n.d. n.d. n.d. n.d.,2/18 (2.22)
GDGLKEYGIS,VIYADGMRESYVNDVK,GQKSGIFNL,n.d. n.d. n.d. n.d. n.d. n.d.,0/18
GEDLNEYGVS,VIYADGIRSTYADSFK,GKVGAAFFQ,n.d. n.d. n.d. n.d. n.d. n.d.,0/18
GMNIDEYGIS,VIYADGMRTAYSNAVK,GIVGGDTTS,n.d. n.d. n.d. n.d. n.d. n.d.,0/18
GFDLGEYGIS,VIYADGHRTAYSTKVK,GTIGGMFFL,n.d. n.d. n.d. n.d. n.d. n.d.,1/18 (3.12)
GFTIDEYGIS,VIYADGQRVAYNEKVK,GMLAGTFDQ,-0.22 -0.07 0.17 -0.41 0.06 -0.26,1/18 (2.47)
GFDIEEYGIS,VIYADGQRVSYIDSFK,GQNNVIGMY,n.d. n.d. n.d. n.d. n.d. n.d.,0/18
GFQIDEYGIS,VIYADGARASYAADVK,GSVDGVGLT,n.d. n.d. n.d. n.d. n.d. n.d.,0/18
GGQLDQYGIS,VIYADGVRTSYTNSVK,GVHAGTFMQ,n.d. n.d. n.d. 0.89 n.d. n.d.,0/18
GFNLDDQGIS,VIYADGERTAYSDSVK,GHEGGIMNV,n.d. n.d. n.d. n.d. n.d. n.d.,0/18
GYDIDEYGIS,VIYADGMRTAYQNNVK,GEQDGLMTF,n.d. n.d. n.d. n.d. n.d. n.d.,0/18
GFGLDEYGIS,VIYADGMRAQYATNVK,GYEAGVFST,n.d. n.d. n.d. n.d. n.d. n.d.,1/18 (1.28)
GKHLNEFGIS,VIYADGLRMHYANSVK,GEMAGTFTT,n.d. n.d. n.d. n.d. n.d. n.d.,0/18
GEDLDEYGIS,VIYADGRRVVYQDQVK,GELSGVFAQ,n.d. n.d. n.d. n.d. n.d. n.d.,0/18
GFDLDEMGIS,VIYADGVRTAYIDQVK,GMKGDFMDT,n.d. n.d. n.d. n.d. n.d. n.d.,0/18
GFSLDEYGIS,VIYADGNRRVYIDKVK,GNYGGDFIE,n.d. n.d. n.d. n.d. 2.94 n.d.,1/18 (2.05)
GYDIEEYGIS,VIYADGKRNAFANSFK,GKWAGTFDD,n.d. n.d. 1.25 2.06 1.86 n.d.,0/18
GNDLDEYGIS,VIYADGSRASYIDKVK,GLVGGQLIV,n.d. n.d. n.d. n.d. n.d. n.d.,1/18 (1.78)
GFDVDEYGIS,VIYADGKRSMYANSVK,GTIGGMFFQ,0.05 0.38 n.d. 0.56 1.50 0.48,0/18

A selection of 5 entries from above:

CDR-H1,CDR-H2,CDR-H3,log10 Kd (nM) by replicate,empty controls
GADLNEYGIS,VIYADGNRNAYANKFK,GTNGTFLIN,n.d. n.d. n.d. n.d. n.d. n.d.,0/18
GEDLDEYGIS,VIYADGRRVVYQDQVK,GELSGVFAQ,n.d. n.d. n.d. n.d. n.d. n.d.,0/18
GFSLDEMGIS,VIYADGQRTFYQASVK,GQNSGTVFV,n.d. n.d. n.d. n.d. n.d. n.d.,0/18
GFSLDEYGIS,VIYADGNRRVYIDKVK,GNYGGDFIE,n.d. n.d. n.d. n.d. 2.94 n.d.,1/18 (2.05)
GFDLEEYGVN,VIYADGQRTVYTDAVK,GEVSAGFLI,n.d. n.d. n.d. n.d. n.d. n.d.,2/18 (2.22)